Hits are enriched below; roughly 0.94% of the tested compounds scored in any of these assays.
p-CIP stab down – lowers stability of the mouse p/CIP coactivator protein | F442A p/CIP-EGFP cells, EGFP fluorescence, 16 h | decrease of EGFP signal, % at 10 µM | 290,000 compounds, 0.01% hits;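 active = EGFP signal decrease of at least 30% at 10 µM or well 3 SD below plate mean, unless failing retest; inactive = the rest, including hits failing retest or dose response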
ABCB6 inh 2 – blocks the human ABCB6 transporter; Q9NP58; K562-ABCB6 porphyrin accumulation, flow cytometry, 1 h; hits give low values; fluorescence ratio to DMSO, % at 10 µM; 360,000 compounds, 0.19% hits; AID 602162;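 active = fluorescence ratio to DMSO below 75%, the collection mean minus 3 SD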;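 note: signal is porphyrin accumulated inside mitochondria; 100% equals median channel fluorescence of DMSO control wells; lower ratio means ABCB6 inhibition with less porphyrin fluorescence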
Yeast UUG start – modulators of yeast start codon fidelity, primary screen, whole organism, S. cerevisiae, single point, plate reader; S. cerevisiae UUG-firefly luciferase reporter, luminescence/redox ratio; activity score, % at 18.7 µM; 0.13% of 350,000 active; AID 602363, 2012;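 active = replicate mean at a twofold rise or more, about +100% in these data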;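 also: firefly luciferase made from a UUG start codon reports start codon fidelity; reporter light over untreated wells divided by growth signal over untreated wells; some hits fall short of that in this replicate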
PKA-R2B activ – PKA-R2B complex activation. 340,000 compounds, 0.079% hits. activation, % at 11.4 µM. PKA-R2B holoenzyme dissociation, Cy5-IP20 fluorescence polarization; R2B truncated from residue 108, S112A mutant; 0% DMSO only, 100% 113 µM cGMP;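 active = activation above a cutoff set at the mean over all compounds plus 3 SD, cut at about 18% in these data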;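 note: higher means more holoenzyme dissociation and a rise in polarization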
Granule exo inh – lytic granule exocytosis inhibition; TALL-104 LAMP-1 surface exposure, flow cytometry; cells stimulated with thapsigargin and PMA; inhibition, % at 10 µM; 360,000 compounds, 0.66% hits;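 active = inhibition above about 55%, limit read from the data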
PKA-R1A act – activators of PKA-R1A complex; P00514+P68181; PKA-R1A dissociation, Cy5-IP20 fluorescence polarization; scaled: DMSO 0%, 113 µM cGMP 100%; activation, % at 11.4 µM; 340,000 compounds, 0.083% hits; AID 504707;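 active = percent activation above the mean of all tested compounds plus 3 SD, cut at about 19% in these data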;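 note: higher means more PKAc released from R1A so a rise in polarization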
Granule exo CP1 – blocks lytic granule exocytosis; shares compounds with Granule exo inh; TALL-104 cells, LAMP-1 externalization, flow cytometry; stimulated with PMA plus thapsigargin; inhibition, % at 10 µM; 1,500 compounds, 11% hits; in the data active = inhibition above about 60%;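 note: 0% = stimulated vehicle wells and 100% = unstimulated wells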
* hit, by the source's call; . = no result.

SMILES	p-CIP stab down	ABCB6 inh 2	Yeast UUG start	PKA-R2B activ	Granule exo inh	PKA-R1A act	Granule exo CP1
CCN(CC)CCn1c2c(c(SCC(=O)Nc3ccc(C(C)C)cc3)nc1=O)CCCC2	.	97.0	-19.2	-0.2	11.2	0.2	.
COC(=O)C[C@H]1CC[C@H]2[C@@H](COc3ccc(NS(=O)(=O)c4cccc(F)c4)cc3C(=O)N2C)O1	.	.	-0.8	.	.	.	.
CN1c2ccc(-c3cccc(F)c3)cc2[C@H]2[C@H](CCN2C(=O)c2ccncc2)[C@H]1CO	.	.	8.5	.	.	.	.
CCCCCCNCC(=O)N1CCC(Cc2ccccc2)CC1	4.9	96.0	34.1	6.8	70.2*	3.9	-12.6
CCOC(=O)c1c(NC(=O)C(NCCN(C)C)c2ccccc2)sc2c1CCCC2 (stereo not drawn)	-18.4	100.0	-3.6	-11.9	69.6*	-2.0	45.8
COc1ccccc1CC(=O)c1ccc(OCc2ccccc2)cc1	.	98.0	-14.7	-10.5	81.1*	-3.3	-9.1
O=C(C[C@@H]1C=C[C@H](NC(=O)Nc2ccc(C(F)(F)F)cc2)[C@H](CO)O1)NCc1cc(F)cc(F)c1	.	.	13.7	.	.	.	.
CN(C)Cc1cn(CC[C@@H]2CC[C@@H](NC(=O)Nc3ccc4c(c3)OCO4)[C@@H](CO)O2)nn1	.	.	-11.9	.	.	.	.
CCOC(=O)c1c(CN2CCN(CCO)CC2)n(-c2ccccc2)c2cc(Br)c(O)cc12	-4.9	95.0	.	6.5	78.9*	-6.1	-0.7
CCOC(=O)c1c(CN2CCN(C)CC2)n(-c2ccccc2)c2cc(Br)c(O)cc12	1.3	93.0	.	3.8	59.0*	-4.5	-6.3
CCOC(=O)c1c(CN2CCN(c3ccccc3)CC2)oc2cc(Br)c(O)cc12	3.2	98.0	-7.8	-2.6	-1.8	1.0	.
O=C(Nc1nc2ccccc2n1CCN1CCOCC1)c1ccc(COc2ccccc2Br)o1	-13.2	98.0	.	3.3	70.2*	1.9	80.5*
CC(C)=CCC/C(C)=C/CNC(=O)C[C@H]1C[C@H](C(=O)N2CCOCC2)[C@@]2(C)c3[nH]c4ccc(Cl)cc4c3CCN2C1=O	.	102.0	-15.7	-1.3	69.8*	3.0	11.1
CC(C)=CCC/C(C)=C/CNC(=O)CC1C[C@H](C(=O)N2CCOCC2)[C@@]2(C)c3[nH]c4ccccc4c3CCN2C1=O (stereo partly drawn)	.	102.0	-5.4	-1.8	13.9	7.2	.
Cc1ccc(S(=O)(=O)c2nc(-c3ccccc3)oc2SCC(=O)NCC2CCCO2)cc1 (stereo not drawn)	-2.6	167.0	-8.6	8.9	9.2	-4.6	.
Cc1ccc(S(=O)(=O)c2nc(-c3ccco3)oc2SCC(=O)NCC2CCCO2)cc1 (stereo not drawn)	-4.9	101.0	4.0	5.4	89.4*	-5.4	-9.9
CCN(CC)CCSc1nnc2c3cc(C)ccc3n(Cc3ccccc3)c2n1	-8.5	95.0	-12.2	.	64.0*	.	-10.4
CSc1nnc2c3cc(F)ccc3n(Cc3ccccc3)c2n1	-136.7	100.0	-19.1	-2.8	-1.0	-8.4	.
CCN(CC)CCn1c(=N)n(CCO)c2ccccc21	-4.1	89.0	-4.9	8.6	-1.6	2.3	.
N=c1n(CC(=O)c2ccc(Br)s2)c2ccccc2n1Cc1ccccc1	-2.6	95.0	12.2	-6.5	76.9*	-2.1	45.4
Cn1c(=N)n(CC(=O)c2ccc(Br)s2)c2ccccc21	-2.5	93.0	-19.4	-4.8	0.4	-4.5	.
CCN(CC)CCn1c(=N)n(CC(=O)c2ccc(Br)s2)c2ccccc21	-4.3	100.0	-21.8	.	79.4*	.	-0.3
COc1ccc(NC(=O)Nc2ccc3c(c2)C(=O)N([C@@H](C)CO)C[C@@H](C)[C@H](CN(C)Cc2ccncc2)OCCCC[C@H](C)O3)cc1	.	.	3.4	.	.	.	.
CCCc1cc(CN2CCOCC2)c(O)c(CN2CCOCC2)c1O	.	98.0	.	3.3	78.7*	-0.8	28.5
COC1=CC(=O)c2c(ccc3ncnc(N)c23)C1=O	.	161.0	.	10.0	88.4*	-5.3	14.0

Full records, quoted from the list. Order of values: p-CIP stab down | ABCB6 inh 2 | Yeast UUG start | PKA-R2B activ | Granule exo inh | PKA-R1A act | Granule exo CP1
CCN(CC)CCn1c(=N)n(CCO)c2ccccc21 as listed: -4.1 | 89.0 | -4.9 | 8.6 | -1.6 | 2.3 | .
CSc1nnc2c3cc(F)ccc3n(Cc3ccccc3)c2n1 as listed: -136.7 | 100.0 | -19.1 | -2.8 | -1.0 | -8.4 | .
Cc1ccc(S(=O)(=O)c2nc(-c3ccco3)oc2SCC(=O)NCC2CCCO2)cc1 (stereo not drawn) as listed: -4.9 | 101.0 | 4.0 | 5.4 | 89.4* | -5.4 | -9.9

Screens (PubChem BioAssay)
